Data from US20040048237A1 (priority 2002, published 2004).

Tested on: N2A cells stably transfected with presenilin1
Assay: Killing of N2A cells stably transfected with presenilin1 by MG132

CC(C)C[C@@H](C=O)NC(=O)[C@H](CC(C)C)NC(=O)[C@H](CC(C)C)NC(=O)OCc1ccccc1 [MG132]
selective killing of transfected cells: no selective killing
